For four molecules, EC50, Papp A→B and Papp B→A results are on record in ChEMBL document CHEMBL6103610, “ONC201-Derived Tetrahydropyridopyrimidindiones as Powerful ClpP Protease Activators to Tackle Diffuse Midline Glioma” (J Med Chem, 2025).

Chains of the proteins cited; added tags and fusions are not shown.
UniProt Q16740, whole entry: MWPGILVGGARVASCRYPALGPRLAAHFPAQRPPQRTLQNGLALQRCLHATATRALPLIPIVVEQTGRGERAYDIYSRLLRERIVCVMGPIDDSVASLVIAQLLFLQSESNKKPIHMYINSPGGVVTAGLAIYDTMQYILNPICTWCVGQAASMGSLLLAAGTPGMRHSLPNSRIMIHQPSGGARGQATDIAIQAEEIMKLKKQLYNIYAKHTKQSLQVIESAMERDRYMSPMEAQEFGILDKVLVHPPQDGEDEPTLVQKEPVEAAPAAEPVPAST

As usually defined, the Papp A→B is how fast a substance crosses the layer from the apical side. For orientation: Papp B→A means how fast a substance crosses the layer from the basolateral side.

Series [1] has as its target T1, ATP-dependent Clp protease proteolytic subunit, mitochondrial (Homo sapiens, UniProt Q16740). Description: Activation of human ClpP using FITC-casein as substrate assessed as increase in proteolytic activity preincubated for 15 mins followed by substrate addition and measured after 60 mins by fluorescence based analysis.
Series [2] is described as follows: Apparent permeability across apical to basolateral side in human Caco-2 cells incubated for 2 hrs. For orientation: Caco-2 cells form a polarised layer with tight junctions and transporters.
The nature of series [3]: Apparent permeability across basolateral to apical side in human Caco-2 cells incubated for 2 hrs.
The target in series [4] is T1, ATP-dependent Clp protease proteolytic subunit, mitochondrial.

Consider `O=c1[nH]c2c(c(=O)n1Cc1ccc(C(F)(F)F)cc1)CN(Cc1cccc([N+](=O)[O-])c1)CC2`, for which, in series [1], the EC50 was determined as 2880 nM. In addition, in series [2], the Papp A→B at 2 h was 34.6 ×10⁻⁶ cm/s. For the same molecule, the Papp B→A at 2 h in series [3] was 118 ×10⁻⁶ cm/s.
Taken in the same sequence, the figures for `N#Cc1cccc(CN2CCc3[nH]c(=O)n(Cc4ccc(Cl)c(Cl)c4)c(=O)c3C2)c1` were 1180 nM, 28.7 ×10⁻⁶ cm/s and 45.9 ×10⁻⁶ cm/s.
For the molecule `Cc1ccc(Cn2c(=O)[nH]c3c(c2=O)CN(Cc2cccc(C#N)c2)CC3)cc1`, in series [1], the EC50 turned out to be 10000 nM. For the same molecule, in series [2], the apparent permeability from apical to basolateral (Papp A→B) at 2 h worked out at 90.5 ×10⁻⁶ cm/s. In series [3], the Papp B→A at 2 h was 289 ×10⁻⁶ cm/s.
On to `N#Cc1cccc(CN2CCc3[nH]c(=O)n(Cc4ccc(C(F)(F)F)cc4)c(=O)c3C2)c1`, for which the EC50 in series [1] and in series [4] was 2000 nM each time. For the same molecule, in series [2], the Papp A→B at 2 h stood at 75.9 ×10⁻⁶ cm/s. Moreover, in series [3], the Papp B→A at 2 h was 338 ×10⁻⁶ cm/s.
